Measured values taken from article PMC3921447, “Homologous and heterologous desensitization of guanylyl cyclase-B signaling in GH3 somatolactotropes” (Cell and Tissue Research, 2013).

Molecular target: T1, GC-B (Rattus norvegicus, UniProt P16067)
T1 construct: rapid homologous desensitization of endogenous GC-B receptors in GH3 cells; endogenous in cells; host or cells: GH3 rat somatolactotrope cells
T1 sequence (P16067 17-1047): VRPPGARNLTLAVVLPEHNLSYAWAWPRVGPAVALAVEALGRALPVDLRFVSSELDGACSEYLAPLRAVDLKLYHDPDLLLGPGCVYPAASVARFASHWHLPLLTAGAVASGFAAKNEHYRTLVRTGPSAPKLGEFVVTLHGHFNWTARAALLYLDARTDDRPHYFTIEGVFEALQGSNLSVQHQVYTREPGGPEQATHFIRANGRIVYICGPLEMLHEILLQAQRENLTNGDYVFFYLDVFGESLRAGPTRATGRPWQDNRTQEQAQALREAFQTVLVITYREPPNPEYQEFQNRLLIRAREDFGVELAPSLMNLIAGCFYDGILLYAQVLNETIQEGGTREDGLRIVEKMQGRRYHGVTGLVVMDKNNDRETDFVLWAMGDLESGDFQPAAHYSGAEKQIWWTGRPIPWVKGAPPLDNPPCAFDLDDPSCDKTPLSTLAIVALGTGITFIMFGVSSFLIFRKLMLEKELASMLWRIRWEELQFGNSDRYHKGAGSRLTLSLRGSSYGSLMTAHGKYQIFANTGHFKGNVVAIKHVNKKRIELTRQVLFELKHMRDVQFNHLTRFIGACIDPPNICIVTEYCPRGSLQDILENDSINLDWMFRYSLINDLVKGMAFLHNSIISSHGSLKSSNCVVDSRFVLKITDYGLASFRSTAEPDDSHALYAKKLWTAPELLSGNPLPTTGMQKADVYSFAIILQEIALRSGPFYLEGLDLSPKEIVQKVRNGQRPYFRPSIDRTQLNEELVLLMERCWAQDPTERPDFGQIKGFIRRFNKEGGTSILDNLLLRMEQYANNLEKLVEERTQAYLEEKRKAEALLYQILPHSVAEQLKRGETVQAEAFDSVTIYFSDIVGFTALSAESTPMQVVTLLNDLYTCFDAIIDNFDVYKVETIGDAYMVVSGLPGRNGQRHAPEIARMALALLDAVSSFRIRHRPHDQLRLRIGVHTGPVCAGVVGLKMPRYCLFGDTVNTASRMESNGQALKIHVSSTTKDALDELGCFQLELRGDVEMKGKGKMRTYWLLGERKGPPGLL
Assay: Effect of natriuretic peptide pre-treatment on CNP-stimulated (GC-B) cGMP accumulation in GH3 cells
Format: cell-based
Settings: 100 nM ANP pre-treatment 6 h, then 100 nM CNP plus 1 mM IBMX 15 min; ns, P > 0.05; Fig. 3c
Description: Having established that GC-B signaling but not that of GC-A receptors, underwent rapid homologous desensitization, we next examined the effect of prolonged exposure of each receptor to its specific ligand. GH3 cells pre-treated with either ANP or CNP for 0 (control) to 6 h reduced the response to a subsequent 15-min treatment of ANP or CNP (with IBMX). […] The amount of cGMP measured from the 15-min pre-treatment sample was reduced by 39.6 ± 0.002 % (***P < 0.001). This effect was maintained up to the 6-h pre-treatment with CNP, which was reduced by 37.9 ± 7.1 % compared with the control (***P < 0.001).
Fig. 3 Effect of chronic exposure to CNP and ANP on GC-B- and GC-A-dependent cGMP accumulation in GH3 cells. Cells were initially treated with (a) 100 nM CNP or (b) 100 nM ANP in PSS without IBMX for 0 to 6 h. The medium was removed and replaced with 100 nM CNP (a) or 100 nM ANP (b) for 15 min in the presence of 1 mM IBMX. […]
In similar experiments designed to examine the effect of ANP pre-exposure to GC-A activity, a significant reduction in cGMP accumulation was observed within 30 min of ANP pre-treatment (by 28.9 ± 3.1 % compared with the control, *P < 0.05). […] In order to test the receptor specificity of the observed down-regulation of GC-B upon pre-treatment with CNP and of GC-A upon pre-treatment with ANP, the effects of ANP on GC-B and CNP on GC-A desensitization were determined. […]

CC[C@H](C)[C@@H]1NC(=O)[C@H](CCCNC(=N)N)NC(=O)[C@H](CC(=O)O)NC(=O)[C@H]([C@@H](C)CC)NC(=O)[C@H](CCCNC(=N)N)NC(=O)CNC(=O)CNC(=O)[C@H](Cc2ccccc2)NC(=O)[C@@H](NC(=O)[C@H](CO)NC(=O)[C@H](CO)NC(=O)[C@H](CCCNC(=N)N)NC(=O)[C@H](CCCNC(=N)N)NC(=O)[C@H](CC(C)C)NC(=O)[C@@H](N)CO)CSSC[C@@H](C(=O)N[C@@H](CC(N)=O)C(=O)N[C@@H](CO)C(=O)N[C@@H](Cc2ccccc2)C(=O)N[C@@H](CCCNC(=N)N)C(=O)N[C@@H](Cc2ccc(O)cc2)C(=O)O)NC(=O)CNC(=O)[C@H](CC(C)C)NC(=O)CNC(=O)[C@H](CO)NC(=O)[C@H](CCC(N)=O)NC(=O)[C@H](C)NC(=O)CNC1=O [ANP, atrial natriuretic peptide]
CNP-stimulated cGMP after ANP pre-treatment vs control: not significantly different from the control samples
